Test system: RAG01 (derived from fibroblasts of a patient diagnosed with SSMD) fibroblasts
Experiment: CellTiter-Glo concentration response in RAG01 fibroblasts
Assay type: cell-based
Settings: Homo sapiens, Fibroblast, 72 h
Description: Compounds described herein were tested in three cell lines, RAG01 (derived from fibroblasts of a patient diagnosed with SSMD) fibroblasts, RAG02 (derived from fibroblasts of the patient's parent), and GM09503 (from supplier Corriell) (derived from a healthy donor) to each generate 10-point concentration response curves (CRC). The three cell lines were each thawed seven (7) days prior to seeding. The RAG01 cells were thawed in a medium supplemented with a-tocopherol. Cells were passaged four (4) days prior to the seeding. The α-tocopherol was removed from the RAG01 cells. Cells were then seeded at 900 cells per well in 384-well plates. Two replicates were prepared for two independent (replicate) experiments. All plates were then incubated with compounds described herein for 72 hours, prior to CellTiter-Glo assay. […] The assay was run using the CellTiter-Glo (Promega) following manufacturer's guidelines and luminescent spectrophotometric reading on PHERAstar FSX (BMG Labtech). A 0.1% dimethylsulfoxide (DMSO) was used as a blank (vehicle control); and a 1 μM Ferrostatin-1 was used as a control (CTRL).
The raw data was analyzed using Activity Base® software. The compounds were evaluated by efficacy (percentage effect) normalized to the vehicle control. The percentage effect (PE) was determined from the signal increase in comparison to the vehicle control according to the formula below: […]

Row | SMILES | EC50
1 | Cc1c(NC(=O)N2CCOCC2)ccc2c1c1ccccc1n2C(C)C [compound 63, NPY-5RA972] | 5.45 µM
2 | Cc1ccc(CCCO)c(NCc2ccc3nc(NCCCN4CCOCC4)n(Cc4nc(C)ccc4O)c3c2)c1 [compound 102, TMC353121] | 1.41 µM

— US20230414628A1, “METHODS FOR TREATING DISEASES MEDIATED BY GLUTATHIONE PEROXIDASE 4” (priority 2022, published 2023)
